According to patent US8003342:

Molecular target: recombinant wild type human p21^H-ras protein (UniProt P01112)

## rat brain farnesyl:protein transferase
  half-maximal concentration for p21^H-ras (substrate saturation of farnesyl transfer): The half-maximal concentration for p21^H-ras was approximately 5 µM
